Assay results published in US7192924B2, “Corticotropin releasing factor 2 receptor agonists” (priority 2002, dated 2007).

Key:
CRF2R = molecular target: T1, CRF2R (Homo sapiens, UniProt Q13324); assay: CRF2R agonist activity (EC50, Emax), called comparative CRF binding; format: cell-based
T1 sequence (Q13324 1-411): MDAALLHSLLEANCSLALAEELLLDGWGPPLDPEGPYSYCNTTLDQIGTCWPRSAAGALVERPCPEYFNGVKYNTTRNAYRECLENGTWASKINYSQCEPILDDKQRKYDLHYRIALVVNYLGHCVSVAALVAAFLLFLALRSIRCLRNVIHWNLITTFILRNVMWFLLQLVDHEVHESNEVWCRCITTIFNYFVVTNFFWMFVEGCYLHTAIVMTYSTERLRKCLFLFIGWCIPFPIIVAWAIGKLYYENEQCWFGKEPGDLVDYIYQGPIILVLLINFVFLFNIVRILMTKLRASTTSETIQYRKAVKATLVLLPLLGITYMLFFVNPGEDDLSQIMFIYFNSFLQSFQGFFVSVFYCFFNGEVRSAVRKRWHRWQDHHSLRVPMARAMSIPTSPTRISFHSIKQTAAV
Summary of the method: (§1)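 Receptor activation was followed through cAMP, measured in lysates or by a CRE-linked reporter, after peptide or vehicle exposure. Cells carried a single CRF receptor subtype, CRF1R or CRF2R; where both were present, background from the non-target receptor was subtracted.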

CRF1R = molecular target: T2, CRF1R (Homo sapiens, UniProt P34998); assay: CRF1R agonist activity (EC50, Emax), called comparative CRF binding; format: cell-based
T2 sequence (P34998 24-415): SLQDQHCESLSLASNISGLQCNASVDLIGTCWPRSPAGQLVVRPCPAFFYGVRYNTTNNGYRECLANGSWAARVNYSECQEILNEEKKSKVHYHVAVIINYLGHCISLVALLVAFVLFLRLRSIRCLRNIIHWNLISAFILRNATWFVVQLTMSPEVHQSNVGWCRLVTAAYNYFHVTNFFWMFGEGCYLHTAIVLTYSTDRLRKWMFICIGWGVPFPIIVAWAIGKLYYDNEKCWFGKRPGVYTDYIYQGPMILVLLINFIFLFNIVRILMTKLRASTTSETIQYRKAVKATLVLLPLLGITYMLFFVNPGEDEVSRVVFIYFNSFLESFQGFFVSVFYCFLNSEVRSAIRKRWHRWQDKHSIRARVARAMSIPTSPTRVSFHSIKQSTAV
Summary of the method: as §1

| SMILES | EC50 (CRF2R) | EC50 (CRF1R) | EC50 (CRF2R; read-out: CRF2R EC50) | EC50 (CRF1R; read-out: CRF1R EC50) |
| --- | --- | --- | --- | --- |
| CC[C@H](C)[C@H](NC(=O)[C@@H](NC(=O)[C@H](CC(=O)O)NC(=O)[C@H](CC(C)C)NC(=O)[C@H](CC(C)C)NC(=O)[C@H](CC(C)C)NC(=O)[C@H](CCCNC(=N)N)NC(=O)[C@H](CC(N)=O)NC(=O)[C@H](CC(N)=O)NC(=O)[C@H](C)NC(=O)[C@H](C)NC(=O)[C@H](CCC(N)=O)NC(=O)[C@H](CCC(N)=O)NC(=O)[C@H](CCCCN)NC(=O)[C@H](CCC(=O)O)NC(=O)[C@H](CCCCN)NC(=O)[C@H](CCC(=O)O)NC(=O)[C@H](CCC(N)=O)NC(=O)[C@H](CCCCN)NC(=O)[C@H](CCC(=O)O)NC(=O)[C@@H](NC(=O)[C@H](CCC(=O)O)NC(=O)[C@@H](NC(=O)[C@H](CCSC)NC(=O)[C@H](CCCCN)NC(=O)[C@H](CCCNC(=N)N)NC(=O)[C@H](CC(C)C)NC(=O)[C@H](CC(C)C)NC(=O)[C@H](Cc1c[nH]cn1)NC(=O)[C@H](Cc1ccc(O)cc1)NC(=O)[C@@H]1CCCN1C(=O)[C@H](CC(C)C)NC(=O)[C@H](CC(=O)O)NC(=O)[C@@H](NC(=O)[C@H](CO)NC(=O)[C@@H](NC(=O)[C@@H]1CCCN1C(=O)[C@@H]1CCCN1C(=O)CNC(=O)[C@@H]1CCC(=O)N1)[C@@H](C)CC)[C@@H](C)CC)[C@@H](C)CC)[C@@H](C)CC)[C@@H](C)O)C(N)=O [compound 208] | 5.6 nM | 64.9 nM | – | – |
| CC[C@H](C)[C@H](NC(=O)[C@@H](NC(=O)[C@H](CC(=O)O)NC(=O)[C@H](CC(C)C)NC(=O)[C@H](CC(C)C)NC(=O)[C@H](CC(C)C)NC(=O)[C@H](CCCNC(=N)N)NC(=O)[C@H](CC(N)=O)NC(=O)[C@H](CC(N)=O)NC(=O)[C@H](C)NC(=O)[C@H](C)NC(=O)[C@H](CCC(N)=O)NC(=O)[C@H](CCC(N)=O)NC(=O)[C@H](CCCCN)NC(=O)[C@H](CCC(=O)O)NC(=O)[C@H](CCCCN)NC(=O)[C@H](CCC(=O)O)NC(=O)[C@H](CCC(N)=O)NC(=O)[C@H](CCCCN)NC(=O)[C@H](CCC(=O)O)NC(=O)[C@@H](NC(=O)[C@H](CCC(=O)O)NC(=O)[C@@H](NC(=O)[C@H](CCSC)NC(=O)[C@H](CCCCN)NC(=O)[C@H](CCCNC(=N)N)NC(=O)[C@H](CC(C)C)NC(=O)[C@H](CC(C)C)NC(=O)[C@H](Cc1c[nH]c2ccccc12)NC(=O)[C@H](CC(C)C)NC(=O)[C@@H]1CCCN1C(=O)[C@H](CC(C)C)NC(=O)[C@H](CC(=O)O)NC(=O)[C@@H](NC(=O)[C@H](CO)NC(=O)[C@@H](NC(=O)[C@@H]1CCCN1C(=O)[C@@H]1CCCN1C(=O)CNC(=O)[C@@H]1CCC(=O)N1)[C@@H](C)CC)[C@@H](C)CC)[C@@H](C)CC)[C@@H](C)CC)[C@@H](C)O)C(N)=O [compound 218] | – | – | 4.8 nM | 98.4 nM |
| CC[C@H](C)[C@H](NC(=O)[C@@H](NC(=O)[C@H](CC(=O)O)NC(=O)[C@H](CC(C)C)NC(=O)[C@H](CC(C)C)NC(=O)[C@H](CC(C)C)NC(=O)[C@H](CCCNC(=N)N)NC(=O)[C@H](CC(N)=O)NC(=O)[C@H](CC(N)=O)NC(=O)[C@H](C)NC(=O)[C@H](C)NC(=O)[C@H](CCC(N)=O)NC(=O)[C@H](CCC(N)=O)NC(=O)[C@H](CCCCN)NC(=O)[C@H](CCC(=O)O)NC(=O)[C@H](CCCCN)NC(=O)[C@H](CCC(=O)O)NC(=O)[C@H](CCC(N)=O)NC(=O)[C@H](CCCCN)NC(=O)[C@H](CCC(=O)O)NC(=O)[C@@H](NC(=O)[C@H](CCC(=O)O)NC(=O)[C@@H](NC(=O)[C@H](CCSC)NC(=O)[C@H](CCCCN)NC(=O)[C@H](CCCNC(=N)N)NC(=O)[C@H](CC(C)C)NC(=O)[C@H](CC(C)C)NC(=O)[C@H](Cc1ccccc1)NC(=O)[C@H](Cc1ccc(O)cc1)NC(=O)[C@@H]1CCCN1C(=O)[C@H](CC(C)C)NC(=O)[C@H](CC(=O)O)NC(=O)[C@@H](NC(=O)[C@H](CO)NC(=O)[C@@H](NC(=O)[C@@H]1CCCN1C(=O)[C@@H]1CCCN1C(=O)CNC(=O)[C@@H]1CCC(=O)N1)[C@@H](C)CC)[C@@H](C)CC)[C@@H](C)CC)[C@@H](C)CC)[C@@H](C)O)C(N)=O [compound 220] | – | – | 4.1 nM | 63.6 nM |

Where two headings read alike, the source gives them in different places.
